Results published in PMC11730311 (Scientific Reports, 2025).

Sequences of proteins named here, by UniProt entry; tags and fusion partners are left off. Residues count along the entry.
UniProt O60894, 27-148: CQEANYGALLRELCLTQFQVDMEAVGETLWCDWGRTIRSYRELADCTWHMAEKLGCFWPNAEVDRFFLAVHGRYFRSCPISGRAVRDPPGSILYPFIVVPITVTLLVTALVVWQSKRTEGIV
UniProt Q16602, 23-461: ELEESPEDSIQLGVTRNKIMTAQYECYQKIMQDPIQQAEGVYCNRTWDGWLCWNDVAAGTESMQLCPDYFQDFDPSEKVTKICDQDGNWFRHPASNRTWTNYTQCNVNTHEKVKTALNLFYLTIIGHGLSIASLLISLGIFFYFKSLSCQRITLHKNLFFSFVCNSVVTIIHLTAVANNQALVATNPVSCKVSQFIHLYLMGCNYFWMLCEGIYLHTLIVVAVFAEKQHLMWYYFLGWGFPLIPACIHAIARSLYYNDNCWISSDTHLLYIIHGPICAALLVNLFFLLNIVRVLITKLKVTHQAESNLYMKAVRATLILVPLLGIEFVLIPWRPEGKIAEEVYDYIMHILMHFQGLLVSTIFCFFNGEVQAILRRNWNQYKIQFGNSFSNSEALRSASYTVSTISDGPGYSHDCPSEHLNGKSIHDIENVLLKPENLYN

Target: human calcitonin gene-related peptide receptor (hCGRP-R) (Homo sapiens, UniProt O60894+Q16602)
Test: HTRF cAMP assay, agonist potency in the CHO-K1 hCGRP-R cell line
Assay type: cell-based

## CC[C@H](C)[C@H](NC(=O)[C@H](C)NC(=O)CNC(=O)[C@H](Cc1ccccc1)NC(=O)[C@H](CC(N)=O)NC(=O)[C@H](CC(N)=O)NC(=O)[C@H](CO)NC(=O)[C@H](CO)NC(=O)[C@H](Cc1c[nH]cn1)NC(=O)[C@@H](NC(=O)[C@H](CC(C)C)NC(=O)[C@H](Cc1ccccc1)NC(=O)[C@H](CC(N)=O)NC(=O)[C@H](C)NC(=O)[C@H](CC(C)C)NC(=O)[C@H](CCCNC(=N)N)NC(=O)[C@H](CCC(N)=O)NC(=O)[C@@H](NC(=O)[C@H](C)NC(=O)[C@@H]1CSSC[C@H](NC(=O)[C@@H](N)CCCCN)C(=O)N[C@@H](CC(N)=O)C(=O)N[C@@H]([C@@H](C)O)C(=O)N[C@@H](C)C(=O)N[C@@H]([C@@H](C)O)C(=O)N1)[C@@H](C)O)C(C)C)C(=O)N[C@@H](CC(C)C)C(=O)N[C@@H](CO)C(=O)N[C@@H](CO)C(=O)N[C@H](C(=O)N[C@@H](CC(N)=O)C(=O)N[C@H](C(=O)NCC(=O)N[C@@H](CO)C(=O)N[C@@H](CC(N)=O)C(=O)N[C@H](C(=O)N[C@@H](Cc1ccc(O)cc1)C(N)=O)[C@@H](C)O)C(C)C)[C@@H](C)O [hAmylin]
  EC50: 1.2 nM
